Assay: In-vivo plasma to lung partition coefficients of the compound, logP(lung) in rat
Format: ADME, cell-free

For `Cc1cc2c(s1)Nc1ccccc1N=C2N1CCN(C)CC1` [OLANZAPINE], the “logP(lung)” value was 1.43.

Reference: ChEMBL document CHEMBL1795228, “Air to lung partition coefficients for volatile organic compounds and blood to lung partition coefficients for volatile organic compounds and drugs” (Eur J Med Chem, 2008)
